The list shows a part of the results, in another mix than the full data. The source made the active and inactive calls.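 How the source made its calls: active means inhibition above mean plus 3 SD of compounds lying within the high and low control bounds (cut at about 19% in these data); inactive means the rest.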

By UniProt entry, the sequences of proteins in these tests, tags left out. Where a name states a change or a piece, a line headed by the entry shows the natural chain unless it says otherwise.
UniProt Q9NZ20: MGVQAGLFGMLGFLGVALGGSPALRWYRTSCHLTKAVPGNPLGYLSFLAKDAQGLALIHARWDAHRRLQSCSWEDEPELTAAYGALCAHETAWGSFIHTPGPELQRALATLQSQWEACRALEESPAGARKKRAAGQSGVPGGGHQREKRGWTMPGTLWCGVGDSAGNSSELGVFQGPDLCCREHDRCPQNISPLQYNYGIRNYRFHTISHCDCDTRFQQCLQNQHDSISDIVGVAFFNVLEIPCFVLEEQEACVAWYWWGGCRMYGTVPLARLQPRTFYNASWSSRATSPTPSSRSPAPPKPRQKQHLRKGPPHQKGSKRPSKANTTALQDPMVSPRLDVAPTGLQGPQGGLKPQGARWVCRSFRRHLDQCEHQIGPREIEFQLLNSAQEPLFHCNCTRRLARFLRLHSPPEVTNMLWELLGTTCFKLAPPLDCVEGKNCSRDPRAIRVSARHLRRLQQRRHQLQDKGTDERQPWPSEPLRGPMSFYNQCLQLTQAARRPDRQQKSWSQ

This experiment concerns the target Group 3 secretory phospholipase A2 (Homo sapiens) (UniProt Q9NZ20). The experiment is described as follows: human group III sPLA2 inhibitors, primary screen, biochemical, QFRET, BODIPY PC-A2 liposome substrate (AID 743126).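 Further: 0% = median of test compound wells and 100% = no enzyme DMSO wells.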 The settings on record: QFRET BODIPY PC-A2 liposome hydrolysis, fluorescence; at 12.2 µM; stronger effect = higher value.
By inhibition is commonly meant the relative decrease from the control value, in per cent. On to `O=P1(N(CCCl)CCCl)OCCCS1` (configuration not stated), for which the inhibition was inactive: -0.48%.
Under `O=C(Nc1cc([As](=O)(O)O)ccc1O)c1ccccc1` stands inactive: 4.68%; under `O=[N+]([O-])c1ncn(CCn2ncnc2[N+](=O)[O-])n1`, inactive: 5.4%; under `CC(C)(C)C(=O)NC(Sc1ccncn1)C(Cl)(Cl)Cl` (configuration not stated), inactive: 3.07%.
Under `O=C(O)CNc1ccc([As](=O)(O)O)cc1` stands inactive: 4.34%.
To `COC(=O)C1(C)COP(=O)(Nc2ccccc2)OC1` (configuration not stated) belongs inactive: 18.2%; to `O=[N+]([O-])c1cccc(NC2=NCC(CBr)S2)c1` (configuration not stated), inactive: 6.73%; to `COc1ccc(C2=NCC(CBr)S2)cc1` (configuration not stated), inactive: -3.84%.
On to `CCc1nc2c(n1)c1c(non1O)c1c2no[n+]1[O-]`, for which the inhibition is inactive: 6.12%.
Under `O=[N+]([O-])c1cc([N+](=O)[O-])c(CCNc2ccccc2)c([N+](=O)[O-])c1` stands inactive: 15.7%; under `Cc1ccc(NP(=O)(Oc2ccccc2)Oc2ccccc2)nc1`, inactive: 5.43%.
On to `O=[N+]([O-])c1cccc2n[nH]nc12`, for which the inhibition is inactive: 12.5%.
As for `CC(=O)N1C2C3N(C(C)=O)C1C1N(C(C)=O)C(C(N1C(C)=O)N3C(C)=O)N2C(C)=O`, the inhibition was inactive: -1.68%.
Under `CCN(/C(=N/P(=O)(N1CCOCC1)N1CCOCC1)N1CCOCC1)c1ccc(OC)cc1` stands inactive: -2.67%.
Under `C[N+]1=C2C=CC=CC=C2SC12C([N+](=O)[O-])=CC([N+](=O)[O-])=C[C-]2[N+](=O)[O-]` (configuration not stated) stands inactive: -10.9%; under `Nc1ccc([As](=O)(O)c2ccc(N)cc2)cc1`, inactive: 9.78%.
To `CC1CCN(C(=O)Oc2c(Cl)cc(Cl)c3cccnc23)CC1` belongs inactive: -10.8%.
On to `c1cc(-c2nn[nH]n2)ccc1-c1nn[nH]n1`, for which the inhibition was inactive: 1.32%.
Under `CN(C)C(=O)OCCc1n(C)cc[n+]1C` stands inactive: -3.25%.
With `CC(C)c1nc(Nc2ccccc2)n(P(=O)(N(C)C)N(C)C)n1`, the inhibition is inactive: 1.83%.
Under `CC(C)=N/N=C(\N)N[N+](=O)[O-]` stands inactive: 3.08%; under `Cc1ccc(N/C(=N/P(=O)(N2CCOCC2)N2CCOCC2)N2CCOCC2)cc1`, inactive: -5.13%; under `CN(C(=O)Cc1ccc(Cl)c(Cl)c1)[C@H]1CCCC[C@H]1N1CCCC1`, inactive: -3.13%.
To `NC(=O)c1cc([N+](=O)[O-])cc([N+](=O)[O-])c1N` belongs inactive: 0.17%; to `CN1CCCC(OC(=O)C(c2ccccc2)c2ccccc2)C1` (configuration not stated), inactive: -7.94%; to `Clc1ccc(Cl)c(NC2=NCC(CBr)S2)c1` (configuration not stated), inactive: -2.83%.
`Cc1ccc(OP(=O)(Nc2nccs2)Oc2ccc(C)cc2)cc1`: the inhibition is inactive: 2.99%.
Under `COc1ccccc1OP(=O)(Nc1ccc(C)cn1)Oc1ccccc1OC` stands inactive: 11%.
Under `O=C(NC(Sc1ccncn1)C(Cl)(Cl)Cl)c1ccccc1` (configuration not stated) stands active: 21.6%; under `Oc1ccccc1CNc1ccccn1`, inactive: 3.48%; under `Nc1cc(N)c2nonc2c1[N+](=O)[O-]`, inactive: -0.74%.
For the compound `CC(C)CC(=O)NC(Sc1ccc(Cl)cc1)C(Cl)(Cl)Cl` (configuration not stated), the inhibition was inactive: 8.89%.
To `O=P(Nc1nc2ccc(Cl)cc2s1)(c1ccccc1)c1ccccc1` belongs inactive: -30.4%.
To `CN(C)P(=O)(N(C)C)n1c(Nc2ccccc2)nnc1-c1ccccc1` belongs inactive: -12.5%.
To `CCCC1OP(N)(=O)OCC1CC` (configuration not stated) belongs inactive: 9.54%; to `CC(=O)Nc1ccc([As](=O)(O)O)cc1`, inactive: 13%; to `O=C(O)c1ccccc1[As](=O)(O)O`, inactive: 1.72%.
On to `CCn1c(=O)n(C2CCN(CC3CCCCCCC3)C[C@H]2CO)c2ccccc21` (some centres not stated), for which the inhibition is inactive: -6.32%.
Under `Cc1ccc(NP(=O)(Oc2ccccc2F)Oc2ccccc2F)nc1` stands inactive: 2.46%.
To `CN(C(=O)Cc1ccc(Cl)c(Cl)c1)[C@H]1CCCC[C@@H]1N1CCCC1` belongs inactive: 5.75%.
For `Cc1cc(SC(NC(=O)c2ccc(F)cc2)C(Cl)(Cl)Cl)ncn1` (configuration not stated), the inhibition was inactive: -4.76%.
Take `CCOP(=O)(Nc1ccccc1)OCC`: the inhibition was inactive: -5.16%.
With `Nc1cccc2ccc([As](=O)(O)O)cc12`, the inhibition is inactive: 2.21%.
To `CCN(N=Nc1nonc1N)c1nonc1N` belongs inactive: -5.32%; to `CN(C(=O)Cc1ccccc1)C1CC[C@@]2(CCCO2)C[C@@H]1N1CCCC1` (some centres not stated), inactive: -4.82%; to `Cc1ccc(NP(=O)(Oc2cccc(C)c2)Oc2cccc(C)c2)nc1`, inactive: -3.79%.
In the case of `c1ccc(-c2nn[nH]n2)c(-c2nn[nH]n2)c1`, the inhibition was inactive: -1.93%.
Under `CCNC(=S)/N=C(\N)N[N+](=O)[O-]` stands inactive: 0.16%; under `O=C(NC1CCS(=O)(=O)C1)NP(=S)(Oc1ccccc1)Oc1ccccc1` (configuration not stated), inactive: -8.8%; under `O=P1(N(CCCl)CCCl)OCCC2CCCCN21` (configuration not stated), inactive: 5.24%.
To `CCC(=O)N1C2C3N(C(=O)CC)C1C1N(C(=O)CC)C(C(N1C(=O)CC)N3C(=O)CC)N2C(=O)CC` belongs inactive: 2.79%; to `O=C(OC1CN2CCC1CC2)c1ccccc1` (configuration not stated), inactive: 6.26%; to `CC(=O)NC(SC(=S)N(CC(C)C)CC(C)C)C(Cl)(Cl)Cl` (configuration not stated), inactive: 1.65%.
To `Cc1ccc(OP(=O)(Nc2ccccn2)Oc2ccc(C)cc2)cc1` belongs inactive: -7.03%.
For the compound `COC(=O)c1cc2c(s1)N=C(c1ccccc1)N(C)P2(=O)N1CCOCC1` (configuration not stated), the inhibition is inactive: -0.54%.
Under `O=c1c2cc([N+](=O)[O-])ccc2[nH]c2c([N+](=O)[O-])cc([N+](=O)[O-])cc12` stands inactive: -7.57%; under `CN(C)C(=O)Oc1noc2ccccc12`, inactive: -3.5%; under `CC(NC(=O)COC(=O)C(O)(c1ccccc1)c1ccccc1)c1ccccc1` (configuration not stated), inactive: -6.41%.
As to `Cc1ccccc1OP(=O)(Nc1ccccn1)Oc1ccccc1C`, the inhibition is inactive: 7.32%.
Under `CCOc1ccc(C2=NCC(CBr)S2)cc1` (configuration not stated) stands inactive: 0.81%; under `O=P1(Nc2nc3ccc(Cl)cc3s2)COc2ccccc2O1` (configuration not stated), inactive: -1.1%; under `CC(C)(C)C(=O)NC(Sc1ccccc1)C(Cl)(Cl)Cl` (configuration not stated), inactive: 2.21%.
Under `CCc1cc(O)c([N+](=O)[O-])c(C)c1[N+](=O)[O-]` stands inactive: -10.4%; under `C[C@H]1OP(=O)(Oc2ccccc2)C[C@@H]2O[C@@H]21` (some centres not stated), inactive: 5.09%; under `C[C@@H]1C=CCP(=O)(Oc2ccccc2)O1` (some centres not stated), inactive: 6.17%.
Under `Cc1ccccc1CN(C)C(=O)COC(=O)C(O)(c1ccccc1)c1ccccc1` stands inactive: -7.29%.
For the compound `COC(=O)C1(C)COP(=O)(NCc2ccccc2)OC1` (configuration not stated), the inhibition was inactive: 13.7%.
Under `CC(=O)c1ccc(N2CC2c2ccncc2)cc1` (configuration not stated) stands inactive: -1.06%; under `N#C/C(=C\c1ccc(N(CCBr)CCBr)cc1)C(N)=O`, inactive: -2.84%; under `CC(=O)Nc1ccc(Oc2c([N+](=O)[O-])cc([N+](=O)[O-])cc2[N+](=O)[O-])cc1`, inactive: 1.52%.
Under `CC(=O)Nc1ccc([As](=O)(O)O)c(O)c1` stands inactive: 0.1%.
Under `CC(C)C(=O)NC(Sc1ccccc1)C(Cl)(Cl)Cl` (configuration not stated) stands inactive: 9.95%; under `O=P(Nc1nccs1)(c1ccccc1)c1ccccc1`, inactive: 1.1%.
For the compound `c1nnnn1CCn1cnnn1`, the inhibition is inactive: 0.43%.
To `O=P(Nc1ccccn1)(c1ccc(Br)cc1)c1ccc(Br)cc1` belongs inactive: 0.07%; to `CN(C)C1(CNC(=O)c2ccc(Cl)c(S(N)(=O)=O)c2)CCCCC1`, inactive: -1.99%.
To `COc1ccc(N)c([N+](=O)[O-])c1[N+](=O)[O-]` belongs inactive: 15.1%.
To `Nc1ccc(CCCCOc2ccccc2)cc1` belongs inactive: 3.09%.
Regarding `C[C@H]1OP(=O)(Oc2ccccc2)[C@H](O)[C@H](O)[C@H]1N=[N+]=[N-]` (some centres not stated), the inhibition is inactive: 4.32%.
Under `O=P(Nc1nc2ccccc2s1)(c1ccccc1)c1ccccc1` stands inactive: -11.9%.
Regarding `O=[As](O)(c1ccccc1)c1ccc(O)cc1`, the inhibition is inactive: 8.63%.
Under `CC(=O)NC(SC(=S)N(C)C)C(Cl)(Cl)Cl` (configuration not stated) stands inactive: 7.94%.
Under `O=[N+]([O-])c1ncn(CCn2cnc([N+](=O)[O-])n2)n1` stands inactive: 4.52%.
To `O=C(OC1CN2CCC1CC2)c1cccc(Cl)c1` (configuration not stated) belongs inactive: -2.4%.
For the compound `C(Cc1nn[nH]n1)Cc1nn[nH]n1`, the inhibition is inactive: 0.86%.
To `Nc1ccc([As](=O)(O)c2ccc([N+](=O)[O-])cc2)cc1` belongs inactive: -2.15%; to `C/C(N)=N\P(=O)(OCc1ccccc1)OCc1ccccc1`, inactive: 4.45%.
Under `CC1CCC(C(C)C)C(OP(=O)(Nc2ccccn2)c2ccccc2)C1` (configuration not stated) stands inactive: 2.75%; under `Cc1ccc(C(=O)OC2CN3CCC2CC3)cc1` (configuration not stated), inactive: 0.46%.
As to `Cc1nn(-c2ccccc2)c2c1P(=O)(N1CCOCC1)N(C)C(c1ccccc1)=N2` (configuration not stated), the inhibition is inactive: -3.24%.
Under `CN(C)C1(CNC(=O)c2ccc(S(C)(=O)=O)cc2)CCCCC1` stands inactive: 4.9%.
Under `CCCC1OP(=O)(Nc2ccccc2)OCC1CC` (configuration not stated) stands inactive: 8.84%; under `O=C(/C=C/c1ccccc1)OC1CN2CCC1CC2` (configuration not stated), inactive: -12.3%; under `Cc1ccc(S(=O)(=O)N(CCCN)CCCc2c(C)nc(N)[nH]c2=O)cc1`, inactive: -2.78%.
To `O=P1(Nc2ncccn2)COc2ccccc2OC1` belongs inactive: 1.22%; to `Nc1cccc([As](=O)(O)c2ccccc2)c1`, inactive: -4.34%.
For `Cc1ccc(OCC(=O)OC2CN3CCC2CC3)cc1` (configuration not stated), the inhibition is inactive: 0.28%.
Under `O=[As](O)(c1cccs1)c1cccs1` stands inactive: 10.6%; under `O=P1(Nc2ccc(Br)cn2)COc2ccccc2OC1`, inactive: 2.24%.
To `NS(=O)(=O)c1cccc(NC(=O)COC(=O)C(O)(c2ccccc2)c2ccccc2)c1` belongs inactive: -14.7%; to `CCOP(=O)(NC(=NC(C)c1ccccc1)NC(C)c1ccccc1)OCC` (configuration not stated), inactive: -1.03%.
To `O=P1(Nc2ccccn2)COc2ccccc2OC1` belongs inactive: -0.71%.

The values above are taken from PubChem BioAssay AID743126 (The Scripps Research Institute Molecular Screening Center, 2013).
